Test results: patent US9428503B2, “Imidazo[4,5-c]quinolin-2-one compounds and their use in treating Cancer” (AstraZeneca AB, priority 2014, dated 2016)

Amino acid sequences for entries named in this document (tags omitted). A change or cut given only in a name is not applied to a line headed by its entry.
UniProt Q13315: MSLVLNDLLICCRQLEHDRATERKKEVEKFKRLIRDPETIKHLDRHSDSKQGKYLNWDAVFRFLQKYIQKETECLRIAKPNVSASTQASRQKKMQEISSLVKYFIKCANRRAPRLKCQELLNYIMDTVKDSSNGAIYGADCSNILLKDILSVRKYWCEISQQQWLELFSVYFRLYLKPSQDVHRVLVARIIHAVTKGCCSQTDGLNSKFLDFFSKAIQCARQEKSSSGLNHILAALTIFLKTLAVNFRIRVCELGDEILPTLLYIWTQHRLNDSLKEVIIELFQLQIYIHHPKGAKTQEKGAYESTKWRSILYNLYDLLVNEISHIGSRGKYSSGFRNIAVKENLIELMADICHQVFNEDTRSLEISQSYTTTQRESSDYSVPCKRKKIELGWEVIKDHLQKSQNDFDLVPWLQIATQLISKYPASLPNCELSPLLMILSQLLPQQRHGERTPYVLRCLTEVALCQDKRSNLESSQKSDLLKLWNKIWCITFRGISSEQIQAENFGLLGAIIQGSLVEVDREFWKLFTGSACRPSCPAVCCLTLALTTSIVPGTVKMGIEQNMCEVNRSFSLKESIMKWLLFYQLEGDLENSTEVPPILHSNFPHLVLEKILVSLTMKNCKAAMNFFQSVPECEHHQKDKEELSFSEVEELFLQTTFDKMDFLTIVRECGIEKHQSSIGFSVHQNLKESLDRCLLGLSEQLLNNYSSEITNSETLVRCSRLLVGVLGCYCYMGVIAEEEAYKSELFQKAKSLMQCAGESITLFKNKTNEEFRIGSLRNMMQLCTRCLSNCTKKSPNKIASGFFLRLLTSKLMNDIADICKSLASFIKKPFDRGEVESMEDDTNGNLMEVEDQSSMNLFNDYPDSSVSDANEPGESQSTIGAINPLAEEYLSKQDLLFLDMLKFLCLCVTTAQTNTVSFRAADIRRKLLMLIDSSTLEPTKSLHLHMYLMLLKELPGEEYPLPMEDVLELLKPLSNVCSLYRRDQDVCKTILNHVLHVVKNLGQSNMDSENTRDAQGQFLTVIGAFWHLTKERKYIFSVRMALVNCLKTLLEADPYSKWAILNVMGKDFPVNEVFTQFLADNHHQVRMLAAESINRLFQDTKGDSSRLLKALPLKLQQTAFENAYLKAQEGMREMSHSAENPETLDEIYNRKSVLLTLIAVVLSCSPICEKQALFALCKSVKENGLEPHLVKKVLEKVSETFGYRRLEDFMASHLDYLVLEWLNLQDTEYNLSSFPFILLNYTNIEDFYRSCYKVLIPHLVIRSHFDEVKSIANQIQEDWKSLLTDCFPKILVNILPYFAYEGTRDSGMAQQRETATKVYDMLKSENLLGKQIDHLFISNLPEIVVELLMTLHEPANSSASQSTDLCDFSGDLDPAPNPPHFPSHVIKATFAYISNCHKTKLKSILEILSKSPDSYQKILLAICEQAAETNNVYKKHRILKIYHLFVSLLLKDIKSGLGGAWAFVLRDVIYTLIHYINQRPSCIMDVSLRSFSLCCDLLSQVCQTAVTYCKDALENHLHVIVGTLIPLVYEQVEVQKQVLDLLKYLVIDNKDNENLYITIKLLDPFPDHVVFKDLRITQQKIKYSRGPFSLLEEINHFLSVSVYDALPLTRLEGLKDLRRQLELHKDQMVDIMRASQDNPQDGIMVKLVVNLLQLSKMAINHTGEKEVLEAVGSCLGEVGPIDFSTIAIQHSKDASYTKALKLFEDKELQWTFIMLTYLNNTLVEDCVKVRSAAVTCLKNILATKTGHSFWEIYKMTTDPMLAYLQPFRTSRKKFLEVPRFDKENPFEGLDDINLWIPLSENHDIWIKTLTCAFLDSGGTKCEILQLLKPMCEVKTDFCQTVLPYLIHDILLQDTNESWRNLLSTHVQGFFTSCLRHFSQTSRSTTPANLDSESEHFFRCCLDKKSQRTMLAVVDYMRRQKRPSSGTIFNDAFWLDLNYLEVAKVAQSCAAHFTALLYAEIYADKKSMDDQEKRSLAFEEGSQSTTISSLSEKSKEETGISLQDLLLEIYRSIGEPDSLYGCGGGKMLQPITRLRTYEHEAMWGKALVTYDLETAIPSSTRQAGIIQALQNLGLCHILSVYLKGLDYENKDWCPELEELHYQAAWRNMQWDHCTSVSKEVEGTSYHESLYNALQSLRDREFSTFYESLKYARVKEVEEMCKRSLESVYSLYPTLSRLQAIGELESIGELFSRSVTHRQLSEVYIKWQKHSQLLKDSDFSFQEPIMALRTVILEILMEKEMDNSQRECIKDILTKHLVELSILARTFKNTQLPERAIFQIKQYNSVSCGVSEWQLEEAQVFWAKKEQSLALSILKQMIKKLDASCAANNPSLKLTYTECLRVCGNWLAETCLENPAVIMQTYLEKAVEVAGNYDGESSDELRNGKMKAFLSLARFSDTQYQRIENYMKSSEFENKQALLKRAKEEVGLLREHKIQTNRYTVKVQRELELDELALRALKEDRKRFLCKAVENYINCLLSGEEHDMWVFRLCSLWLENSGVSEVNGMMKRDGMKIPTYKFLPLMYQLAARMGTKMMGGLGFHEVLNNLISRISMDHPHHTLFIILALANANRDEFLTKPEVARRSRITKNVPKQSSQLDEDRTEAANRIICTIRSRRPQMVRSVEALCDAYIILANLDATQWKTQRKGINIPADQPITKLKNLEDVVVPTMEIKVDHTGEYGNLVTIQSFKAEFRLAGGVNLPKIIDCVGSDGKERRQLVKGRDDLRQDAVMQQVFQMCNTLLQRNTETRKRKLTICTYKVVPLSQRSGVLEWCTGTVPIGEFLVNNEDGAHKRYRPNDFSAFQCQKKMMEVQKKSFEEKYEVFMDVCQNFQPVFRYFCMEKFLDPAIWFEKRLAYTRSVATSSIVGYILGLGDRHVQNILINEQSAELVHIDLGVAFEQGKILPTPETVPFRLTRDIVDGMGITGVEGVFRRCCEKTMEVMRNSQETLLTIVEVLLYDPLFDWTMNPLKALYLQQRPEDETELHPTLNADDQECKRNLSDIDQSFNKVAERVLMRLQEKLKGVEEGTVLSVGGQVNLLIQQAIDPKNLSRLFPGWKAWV
UniProt P42336, whole entry, looked up: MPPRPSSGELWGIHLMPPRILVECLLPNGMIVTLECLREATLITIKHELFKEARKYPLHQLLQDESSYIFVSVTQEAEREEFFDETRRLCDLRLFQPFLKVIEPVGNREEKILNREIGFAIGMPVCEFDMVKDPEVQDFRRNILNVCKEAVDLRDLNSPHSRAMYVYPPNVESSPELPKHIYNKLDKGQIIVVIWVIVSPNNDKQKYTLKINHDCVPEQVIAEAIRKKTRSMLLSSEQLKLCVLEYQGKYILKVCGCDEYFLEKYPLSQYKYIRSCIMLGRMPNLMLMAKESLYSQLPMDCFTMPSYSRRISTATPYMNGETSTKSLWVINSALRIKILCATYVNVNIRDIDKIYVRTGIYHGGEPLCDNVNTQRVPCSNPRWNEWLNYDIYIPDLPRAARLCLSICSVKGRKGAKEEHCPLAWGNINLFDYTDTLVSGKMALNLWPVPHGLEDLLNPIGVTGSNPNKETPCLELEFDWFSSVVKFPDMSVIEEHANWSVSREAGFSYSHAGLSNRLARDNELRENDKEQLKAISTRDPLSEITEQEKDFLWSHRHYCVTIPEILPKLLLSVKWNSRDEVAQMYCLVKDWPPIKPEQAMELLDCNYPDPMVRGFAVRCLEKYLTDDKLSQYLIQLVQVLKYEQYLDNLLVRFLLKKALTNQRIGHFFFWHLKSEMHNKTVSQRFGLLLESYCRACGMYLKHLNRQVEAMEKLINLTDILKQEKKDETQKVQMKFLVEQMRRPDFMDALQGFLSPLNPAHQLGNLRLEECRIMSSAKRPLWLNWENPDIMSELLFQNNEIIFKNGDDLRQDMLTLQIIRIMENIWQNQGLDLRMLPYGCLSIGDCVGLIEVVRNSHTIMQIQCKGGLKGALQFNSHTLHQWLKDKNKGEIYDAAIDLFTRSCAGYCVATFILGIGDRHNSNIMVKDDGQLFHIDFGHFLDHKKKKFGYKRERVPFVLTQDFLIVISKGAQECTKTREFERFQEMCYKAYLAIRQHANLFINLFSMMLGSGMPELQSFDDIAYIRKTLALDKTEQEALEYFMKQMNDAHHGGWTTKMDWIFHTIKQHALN

Target: ATM kinase (Homo sapiens (Human), UniProt Q13315)
Assay: Assay a) ATM cellular potency assay (pATM Ser1981 in X-ray irradiated HT29 cells)
Format: cell-based
Details: HT29 cells, pATM Ser1981 after X-ray irradiation; geometric mean where repeated; read-out: Assay a) ATM Cell IC50

Row | SMILES | pIC50
1 | Cn1c(=O)n([C@H]2CCCOC2)c2c3cc(-c4ccc(OCCCN5CCCC5)nc4)ccc3ncc21 [Example 29, 3-methyl-1-[(3S)-oxan-3-yl]-8-[6-(3-pyrrolidin-1-ylpropoxy)pyridin-3-yl]imidazo[5,4-c]quinolin-2-one] | 9.62
2 | Cn1c(=O)n(C2CCOCC2)c2c3cc(-c4ccc(OCCCN5CCCC5)nc4)ccc3ncc21 [Example 30, 3-methyl-1-(oxan-4-yl)-8-[6-(3-pyrrolidin-1-ylpropoxy)pyridin-3-yl]imidazo[5,4-c]quinolin-2-one] | 8.95
3 | CN(C)CCCOc1ccc(-c2ccc3ncc4c(c3c2)n(C2COC2)c(=O)n4C)c(F)n1 [Example 52, 8-[6-[3-(dimethylamino)propoxy]-2-fluoro-3-pyridyl]-3-methyl-1-(oxetan-3-yl)imidazo[4,5-c]quinolin-2-one methanesulfonic acid salt] | 8.32
4 | Cn1c(=O)n([C@@H]2CCCOC2)c2c3cc(-c4ccc(OCCCN5CCCC5)nc4)ccc3ncc21 [Example 59, 3-methyl-8-[6-(3-pyrrolidin-1-ylpropoxy)-3-pyridyl]-1-[(3R)-tetrahydropyran-3-yl]imidazo[4,5-c]quinolin-2-one] | 9.63

Next, values leading:

Row | pIC50 | SMILES
5 | 9.12 | CO[C@H]1C[C@@H](n2c(=O)n(C)c3cnc4ccc(-c5ccc(OCCCN(C)C)nc5F)cc4c32)C1 [Example 18, 8-[6-(3-dimethylaminopropoxy)-2-fluoropyridin-3-yl]-1-(cis-3-methoxycyclobutyl)-3-methylimidazo[4,5-c]quinolin-2-one]
6 | 9.38 | CO[C@H]1C[C@@H](n2c(=O)n(C)c3cnc4cc(F)c(-c5ccc(OCCCN6CCCC6)nc5)cc4c32)C1 [Example 27, 7-Fluoro-1-(cis-3-methoxycyclobutyl)-3-methyl-8-[6-(3-pyrrolidin-1-ylpropoxy)pyridin-3-yl]imidazo[4,5-c]quinolin-2-one]

Target: PI3K-α (Homo sapiens, UniProt P42336)
Assay: Assay c) PI3K cellular potency assay (phospho-Akt T308 ELISA in BT474 cells)
Format: cell-based
Details: BT474 cells, phospho-Akt T308, 2 h; geometric mean where repeated; read-out: Assay c) PI3Kα Cell IC50

Row | pIC50 | SMILES
7 | 5.46 | Cn1c(=O)n([C@@H]2CCOC2)c2c3cc(-c4ccc(OCCCN5CCCCC5)nc4)ccc3ncc21 [Example 54, 3-methyl-8-[6-[3-(1-piperidyl)propoxy]-3-pyridyl]-1-[(3R)-tetrahydrofuran-3-yl]imidazo[4,5-c]quinolin-2-one methane sulfonic acid salt]
8 | < 5.04 | Cn1c(=O)n([C@H]2CCOC2)c2c3cc(-c4ccc(OCCCN5CCCCC5)nc4)ccc3ncc21 [Example 55, 3-methyl-8-[6-[3-(1-piperidyl)propoxy]-3-pyridyl]-1-[(3S)-tetrahydrofuran-3-yl]imidazo[4,5-c]quinolin-2-one]

pIC50: −log10 of the molar value. Counter-ions that a name gives are not always drawn.
